This assay deals with DENV3 NS2B/NS3 protease (cNS2B-G4SG4-NS3pro185) (dengue virus serotype 3 (DENV3)). The assay can be described thus: FRET-based enzymatic cleavage inhibition assay.

On to “wild-type aprotinin (from UniProt P00974 36-93) (natural protein)”, for which the Ki (usually the dissociation constant of the complex between target and ligand, obtained from inhibition or displacement) turned out to be 3.7 nM.

These data come from publication PMC5221572.
